The structures appear in SMILES notation. pIC50: −log10 of the molar value.

For orientation: pIC50 means the IC50 on a negative log10 scale, so that one unit is a factor of ten.

The target of the assay is recombinant HIV-1 IN ST activity (Human immunodeficiency virus type 1 group M subtype B, UniProt P04585). The assay can be described thus: biochemical.

Take `CCOC(=O)C(=O)CC(=O)/C=C/c1cccn1Cc1ccc(C)cc1` [7d, 6-[1-(4-Methylphenyl)methyl-1H-pyrrol-2-yl]-2,4-dioxo-5-hexenoic Acid Ethyl Ester]: the pIC50 was under 3.95.

For the origin of these results see paper PMC7581279 (2013).
